In PubChem BioAssay AID488896 (Broad Institute, 2010):
The entries are a selection whose mix differs from that of the whole data set. Activity calls are given as the source filed them.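 Rule for the calls: active = mean replicate inhibition of at least 70% and a set share of replicates each scoring 70 or more; inconclusive = meets just one of the two criteria; inactive = fails both criteria.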

By UniProt entry, the sequences of proteins in these tests, tags left out. Where a name states a change or a piece, a line headed by the entry shows the natural chain unless it says otherwise.
UniProt Q61009: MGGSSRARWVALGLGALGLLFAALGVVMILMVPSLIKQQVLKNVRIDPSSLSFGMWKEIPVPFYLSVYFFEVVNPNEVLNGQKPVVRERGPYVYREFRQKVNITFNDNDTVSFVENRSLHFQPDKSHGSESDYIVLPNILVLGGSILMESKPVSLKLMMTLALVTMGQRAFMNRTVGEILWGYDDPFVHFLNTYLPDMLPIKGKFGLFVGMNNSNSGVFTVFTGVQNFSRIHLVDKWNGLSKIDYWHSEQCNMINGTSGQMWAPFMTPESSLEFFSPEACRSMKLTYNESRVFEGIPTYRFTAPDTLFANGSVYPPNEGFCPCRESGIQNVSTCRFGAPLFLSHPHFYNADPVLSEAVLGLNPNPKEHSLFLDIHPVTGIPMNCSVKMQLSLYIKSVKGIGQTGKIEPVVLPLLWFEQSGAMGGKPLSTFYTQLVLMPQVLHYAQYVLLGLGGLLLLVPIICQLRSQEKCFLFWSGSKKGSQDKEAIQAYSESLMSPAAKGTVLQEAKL

target: Scavenger receptor class B member 1 (Mus musculus) (UniProt Q61009); assay: mouse SR-BI DiI-HDL uptake blockers – ldlA[mSR-BI] cells, fluorescence, single point, primary screen (AID 488896); details: ldlA[mSR-BI] CHO cells, 3 h, at 12.5 µM, active compounds read high;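 note: 0% = median of neutral control wells and 100% = median of positive control wells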

SMILES	inhibition
O=[N+]([O-])c1ccc(Nc2ccc(Oc3ccc([N+](=O)[O-])cc3[N+](=O)[O-])cc2)c([N+](=O)[O-])c1	inactive: -8.64%
O=P(Nc1ccccn1)(c1cccc2ccccc12)c1cccc2ccccc12	inactive: 0.121%
Cc1cc(SC(NC=O)C(Cl)(Cl)Cl)ncn1 (stereo not given)	inactive: -11.3%
CCOC(=O)Nc1cccc([As](=O)(O)O)c1	inactive: -21%
CCCCOc1ccc(C(=O)NCC2(N3CCCCC3)CCCCC2)cc1OC	inactive: -6.27%
Cc1cc(SC(NC(=O)c2ccccc2)C(Cl)(Cl)Cl)nc(C(C)C)n1 (stereo not given)	inactive: -15.8%
CC1CCNP(=O)(N(CCCl)CCCl)O1 (stereo not given)	inactive: -16.2%
CCOC(=O)Nc1ccc([As](=O)(O)O)c(O)c1	inactive: 7.21%
CCC(C)N(CC(C)C)C(=S)SC(NC(C)=O)C(Cl)(Cl)Cl (stereo not given)	inactive: 27.5%
CCOC(=O)c1ccc(NC(=O)C(C)(CCl)SC)cc1 (stereo not given)	inactive: 4.36%
O=C(OC1CN2CCC1CC2)c1cccc([N+](=O)[O-])c1 (stereo not given)	inactive: -8.06%
O=C(Nc1ccncc1[N+](=O)[O-])c1ccc([N+](=O)[O-])cc1[N+](=O)[O-]	inactive: -6.42%
COP1(=S)c2c(C)nn(CCC#N)c2N=C(c2ccc(F)cc2)N1C (stereo not given)	inactive: 20.1%
COc1ccc(N/C(=N/P(=O)(N2CCOCC2)N2CCOCC2)N2CCOCC2)cc1	inactive: -26.5%
O=[N+]([O-])c1cc(Oc2ccc([N+](=O)[O-])cc2C(F)(F)F)cc([N+](=O)[O-])c1	inactive: 40.3%
COc1ccc2nc(NP(=O)(c3ccccc3)c3ccccc3)sc2c1	inactive: 3.04%
COc1cc(I)ccc1[As](=O)(O)O	inactive: 5.99%
O=P1(N(CCCl)CCCl)OCCCN1CCCl (stereo not given)	inactive: -0.976%
O=P1(N(CCCl)CCCl)Nc2ccccc2N1	inactive: -25.2%
O=C(OC1CN2CCC1CC2)C12CC3CC(CC(C3)C1)C2 (stereo not given)	inactive: 0.382%
Cc1cc(=O)[nH]c(N[N+](=O)[O-])n1	inactive: -3.21%
Cc1c2c(nc3ccccc13)SC(C(Cl)Cl)C2 (stereo not given)	inactive: 3.33%
CCN(CC)C(=S)SC(NC=O)C(Cl)(Cl)Cl (stereo not given)	inactive: -5.71%
O=C(OC1CN2CCC1CC2)c1cccc2[nH]cnc12 (stereo not given)	inactive: -9.54%
CC(C)NC(=O)NP(=O)(Oc1ccccc1)Oc1ccccc1	inactive: 1.72%

SMILES	inhibition
O=[N+]([O-])c1cc([N+](=O)[O-])c(-c2ccn[nH]2)s1	inactive: -14.1%
CC(C)c1ccc(OP(=O)(Nc2ccccn2)Oc2ccccc2F)cc1 (stereo not given)	inactive: -12.9%
COC(=O)C1(C)COP(=O)(N2CCCCCC2)OC1 (stereo not given)	inactive: -17.3%
ClCCSc1nnc(-c2cccnc2)o1	inactive: -15.3%
Cc1ccc2nc3c(c(C)c2c1)CC(C(Cl)Cl)S3 (stereo not given)	inactive: 5.32%
Cc1ccc(OP(=O)(Nc2ccc([N+](=O)[O-])cn2)Oc2ccc(C)cc2)cc1	inactive: -8.77%
O=[As](O)(c1ccc(O)cc1)c1ccccc1O	inactive: -35.6%
C[As](=O)(O)c1cccc(C(=O)O)c1	inactive: -11.3%
COc1cc(C(=O)NCC2(N3CCOCC3)CCCCC2)ccc1OCC(C)C	inactive: 21.6%
O=[N+]([O-])c1ccc(-c2cc([N+](=O)[O-])c(O)c([N+](=O)[O-])c2)cc1	inactive: -14.2%
CN(C)C(=O)c1cc([N+](=O)[O-])cc2c1-c1c(cc([N+](=O)[O-])cc1[N+](=O)[O-])C2=O	inactive: 5.49%
O=[N+]([O-])c1ccc2c(c1)nnn2O	inactive: -3%
CN(C(=O)Cc1ccc(Cl)c(Cl)c1)[C@H]1CC[C@@]2(CCCO2)C[C@@H]1N1CCCC1	inactive: -12.4%
N#CCCN(C(=O)COC(=O)C(O)(c1ccccc1)c1ccccc1)c1ccc(F)cc1	inactive: -5.9%
CCOP1(=S)c2c(C)nn(CCC#N)c2N=C(c2ccc(F)cc2)N1C (stereo not given)	inactive: 27.3%
CN(C(=O)Cc1ccccc1)[C@@H]1CC[C@]2(CCCO2)C[C@H]1N1CCCC1	inactive: 3.6%
NC(=O)Nc1ccc([As](=O)(O)O)cc1	inactive: -5.85%
Nc1ccccc1[As](=O)(O)c1ccccc1	inactive: -7.39%
O=C(O)COc1ccc([As](=O)(O)O)cc1[N+](=O)[O-]	inactive: 1.32%
CCOP1(=S)c2c(C)nn(CCC#N)c2N=C(c2ccccc2F)N1C (stereo not given)	inactive: 15.4%
O=P(Nc1nccs1)(c1ccccc1)c1nc2ccccc2s1 (stereo not given)	inactive: 10.4%
O=P(Nc1nccs1)(Oc1ccccc1)Oc1ccccc1	inactive: -8.19%
COc1cc(C2NCCC3(OCCO3)C2(C)C)cc(OC)c1OC (stereo not given)	inactive: -6.93%
CCOP(=O)(Nc1cccc2ccccc12)OCC	inactive: 4.58%
CCCOP(=S)(Nc1nc(N)cc(=O)[nH]1)OCCC	inactive: -31.9%

SMILES	inhibition
Nc1cccc2c([As](=O)(O)O)cccc12	inactive: 70%
O=[As](O)(c1cccc(O)c1)c1cccc(O)c1	inactive: 3.64%
Cc1cccc(OCC(=O)OC2CN3CCC2CC3)c1 (stereo not given)	inactive: -28.3%
COc1cc(C(=O)NCC2(N3CCOCC3)CCCCC2)cc(Cl)c1OC(C)C	inactive: 25.4%
O=[As](O)(O)c1cccnc1	inactive: -22.2%
CS(=O)(=O)c1ccc(Cl)c(NC(=O)COC(=O)C(O)(c2ccccc2)c2ccccc2)c1	inactive: 23.8%
O=C(OC1CN2CCC1CC2)c1ccc(Cl)cc1 (stereo not given)	inactive: -5.91%
CC1(CBr)Cn2c(nc3ccccc3c2=O)S1 (stereo not given)	inactive: -10%
CC(C)/C=N\N=C(\N)N[N+](=O)[O-]	inactive: 2.89%
CN(C(=O)Cc1ccc(Cl)c(Cl)c1)[C@@H]1CCCC[C@H]1N1CCCC1	inactive: -3.54%
COc1ccccc1CNC(=O)COC(=O)C(O)(c1ccccc1)c1ccccc1	inactive: 2.54%
Clc1n[nH]nc1-c1nn[nH][15n]1	inactive: -15.6%
CC(C)(C)C(=O)NC(Sc1ncccn1)C(Cl)(Cl)Cl (stereo not given)	inactive: -5.07%
CCOP(=O)(Nc1ccc(C)cn1)OCC	inactive: -17.8%
O=P1(Nc2ccccn2)COc2ccccc2OC1	inactive: -5.59%
CCC1=CC2Cc3nc4ccc(Cl)cc4c(N)c3C(C1)C2 (stereo not given)	inactive: -11%
CCOP(=O)(NC(=NC(C)c1ccccc1)NC(C)c1ccccc1)OCC (stereo not given)	inactive: 2.2%
O=P1(Nc2ccc(Br)cn2)COc2ccccc2OC1	inactive: -8.65%
NS(=O)(=O)c1cccc(NC(=O)COC(=O)C(O)(c2ccccc2)c2ccccc2)c1	inactive: 2.74%
O=[As](O)(c1cccs1)c1cccs1	inactive: -15.6%
Nc1cccc([As](=O)(O)c2ccccc2)c1	inactive: -22.4%
O=P1(Nc2ncccn2)COc2ccccc2OC1	inactive: 29.9%
O=C(/C=C/c1ccccc1)OC1CN2CCC1CC2 (stereo not given)	inactive: -5.84%
CCCC1OP(=O)(Nc2ccccc2)OCC1CC (stereo not given)	inactive: -5.51%
CN(C)C1(CNC(=O)c2ccc(S(C)(=O)=O)cc2)CCCCC1	inactive: -7.09%

SMILES	inhibition
Cc1nn(-c2ccccc2)c2c1P(=O)(N1CCOCC1)N(C)C(c1ccccc1)=N2 (stereo not given)	inactive: -22.1%
CC1CCC(C(C)C)C(OP(=O)(Nc2ccccn2)c2ccccc2)C1 (stereo not given)	inactive: -9.44%
Cc1ccc(C(=O)OC2CN3CCC2CC3)cc1 (stereo not given)	inactive: -47%
C(Cc1nn[nH]n1)Cc1nn[nH]n1	inactive: 4.24%
O=C(OC1CN2CCC1CC2)c1cccc(Cl)c1 (stereo not given)	inactive: 1.36%
O=[N+]([O-])c1ccc(O)c(/C=N/Nc2ccc([N+](=O)[O-])cc2[N+](=O)[O-])c1	inactive: -0.939%
CC(=O)NC(SC(=S)N(C)C)C(Cl)(Cl)Cl (stereo not given)	inactive: -9.66%
O=[As](O)(c1ccccc1)c1ccc(O)cc1	inactive: 7.62%
C[C@H]1OP(=O)(Oc2ccccc2)[C@H](O)[C@H](O)[C@H]1N=[N+]=[N-] (stereo not given in full)	inactive: 3.91%
COc1ccc(N)c([N+](=O)[O-])c1[N+](=O)[O-]	inactive: 6.89%
O=P(Nc1ccccn1)(c1ccc(Br)cc1)c1ccc(Br)cc1	inactive: -15.8%
CN(C)C1(CNC(=O)c2ccc(Cl)c(S(N)(=O)=O)c2)CCCCC1	inactive: -14.3%
c1nnnn1CCn1cnnn1	inactive: -0.532%
CC(C)C(=O)NC(Sc1ccccc1)C(Cl)(Cl)Cl (stereo not given)	inactive: 6.22%
O=P(Nc1nccs1)(c1ccccc1)c1ccccc1	inactive: -6.46%
CC(=O)Nc1ccc([As](=O)(O)O)c(O)c1	inactive: -24.8%
CC(=O)Nc1ccc(Oc2c([N+](=O)[O-])cc([N+](=O)[O-])cc2[N+](=O)[O-])cc1	inactive: -10%
N#C/C(=C\c1ccc(N(CCBr)CCBr)cc1)C(N)=O	inactive: 9.04%
CC(=O)c1ccc(N2CC2c2ccncc2)cc1 (stereo not given)	inactive: 9.31%
COC(=O)C1(C)COP(=O)(NCc2ccccc2)OC1 (stereo not given)	inactive: -12.2%
Cc1ccccc1CN(C)C(=O)COC(=O)C(O)(c1ccccc1)c1ccccc1	inactive: -16.9%
C[C@@H]1C=CCP(=O)(Oc2ccccc2)O1 (stereo not given in full)	inactive: -15%
C[C@H]1OP(=O)(Oc2ccccc2)C[C@@H]2O[C@@H]21 (stereo not given in full)	inactive: 8.59%
CCc1cc(O)c([N+](=O)[O-])c(C)c1[N+](=O)[O-]	inactive: -13.2%
CC(C)(C)C(=O)NC(Sc1ccccc1)C(Cl)(Cl)Cl (stereo not given)	inactive: -15.9%
